Results on one substance are retold here after patent US8722864B2 (Nutek Pharma Ltd., priority 2010, dated 2014).

Like-named read-outs stand apart in the source and are kept apart here.

For this series the following is noted: rat, tail vein IV, 66.3 μmol/Kg target.

For the substance acetaminophen, the “Acetaminophen Plasma Mean” value by setting is: (0.50 h) 25767 nmol/L; (1 h) 4823 nmol/L; (2 h) 933 nmol/L; (4 h) 986 nmol/L.
